# AlphaSeq binding of Ab-14 heavy chain variants to a spike HR2 peptide

Target peptide (SARS-CoV-2 spike, HR2 region): PDVDLGDISGINAS

Parent: Ab-14, a human scFv built as VH, a (GGGGS)3 linker, VL. Only the CDRs of the heavy chain vary.
VH: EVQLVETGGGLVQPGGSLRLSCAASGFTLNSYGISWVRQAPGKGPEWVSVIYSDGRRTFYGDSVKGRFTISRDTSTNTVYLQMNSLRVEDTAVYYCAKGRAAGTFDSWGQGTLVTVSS
VL: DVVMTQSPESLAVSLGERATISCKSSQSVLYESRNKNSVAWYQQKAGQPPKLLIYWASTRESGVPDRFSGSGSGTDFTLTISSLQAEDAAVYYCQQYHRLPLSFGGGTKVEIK

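These sequences belong to a second round, designed from the earlier measurements on random variants of the parent. Group labels follow the data file (Ctrl: baseline library sampled from a position-specific scoring matrix, with some repeated check sequences; GPLM: also part of the Gaussian process libraries; Gen: genetic algorithm; a sequence that several methods proposed may carry one label only). The assay is AlphaSeq: two haploid yeast populations carry antibody and antigen on their surface. After mating in shaken culture at 30 °C for 16 h, diploids were selected and their barcode pairs sequenced. A regression on co-assayed BCL2-family reference pairs converts the normalised counts of each replicate to an apparent Kd. Each pool was mated in six replicate cultures.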

Each variant is given by its three heavy chain CDRs, as the data file delimits them; those of the parent are GFTLNSYGIS, VIYSDGRRTFYGDSVK, GRAAGTFDS.
Scale: log10 of Kd in nM, estimated from mating counts; low values are strong binders.
"nd" means that the variant was in the library but no mating with the target was seen in that replicate; the authors take this as a sign of poor binding, and no number exists.
The authors averaged sequences with at least three values out of six and counted those with two or fewer as poor binders.

Variant GFALNSYGIS, VIYSDGRRTFYGDQVK, QRAVGTFDS [Ctrl] showed nd, nd, nd, nd, nd, nd (controls 0 of 18).
Variant DFTLNSYGIS, VIYSDGLRTFYGDSVK, GRAAGTFDS [Ctrl] showed nd, nd, nd, nd, nd, nd (controls 0 of 18).
Variant GFTLNSYGIS, VIYSDGRRTAYHDSVK, GRAAGTFDC [Ctrl] showed nd, 0.51, nd, nd, nd, nd (controls 0 of 18).
Variant TFNLNSYGIS, VIYSHGRRTFYQDSVK, GRAAGTFDS [Ctrl] showed nd, nd, nd, nd, nd, nd (controls 1 of 18).
Variant GFTLNSYGIS, VIYSDGRRTFYGDSVK, GRYKGTFDS [Ctrl] showed nd, nd, nd, nd, nd, 4.77 (controls 0 of 18).
Variant GFSLNEYGIS, VIYSDGRRTAYGDSVK, GRQAGTFDS [Ctrl] showed -0.30, -0.51, -0.13, -0.93, -0.87, -0.65 (controls 0 of 18).
Variant GYSLNSYGIS, VIYSDGRRTFYGDSVK, GRAAGTSPS [Ctrl] showed nd, nd, nd, nd, nd, nd (controls 0 of 18).
Variant GFTLNEYGIS, VIYSDGRRTFYGDSVK, GQIAGTFDS [Ctrl] showed -0.52, -0.53, 0.16, -0.31, 0.93, -0.16 (controls 0 of 18).
Variant KFGLNSYGIS, VIYSDGRRTFYGNSVK, GRAAGTFDS [Ctrl] showed nd, nd, nd, nd, nd, 4.15 (controls 1 of 18).
Variant GTTNNSYGGS, VIYSDGRRTFYGGSVK, GRGKGTFDS [Ctrl] showed nd, nd, nd, nd, nd, nd (controls 0 of 18).
Variant GFTLNSYGIS, VIYSDGRRTFYDDSVK, GKAAGTFDS [Ctrl] showed 1.39, 2.05, 1.39, 1.68, 1.20, 0.69 (controls 0 of 18).
Variant GFTLNSYGIS, VIYSDGYRTFYGDSVE, GRGDGTFDS [Ctrl] showed nd, nd, nd, nd, nd, nd (controls 0 of 18).
Variant GFTLNMYGIS, VIYSDGRRTFYGDSVK, GRAAGTFRS [Ctrl] showed nd, nd, nd, nd, 2.24, nd (controls 0 of 18).
Variant GFTLNSYGIS, VIYSDGVRVFYGDSVK, GRAAGTFDS [Ctrl] showed nd, nd, nd, nd, nd, nd (controls 0 of 18).
Variant GFTLNSYGIS, VIYSDGRRTFYSDSVK, GRQAGTFDM [Ctrl] showed 1.42, 1.96, 1.76, 1.78, 2.34, 1.54 (controls 1 of 18).
Variant GFTLNKYGIS, VIYSDGRRTFYLDSVK, GRAAGTFDS [Ctrl] showed 1.74, 0.45, 1.07, 0.68, 1.66, 0.91 (controls 0 of 18).
Variant GFTLNSYGIS, VIYADGQRTFYGDSVK, GRAAMTFDS [Ctrl] showed nd, nd, nd, nd, nd, nd (controls 0 of 18).
Variant GATLNSYGIS, VIYSDGRRTFYGDSVK, GRQAGTFDS [Ctrl] showed 2.55, 1.45, 2.74, 1.83, 3.46, nd (controls 0 of 18).
Variant GFTLNDYGIS, VIYSDGRRTFYGDSVV, GIAAGTFES [Ctrl] showed nd, nd, nd, nd, nd, nd (controls 0 of 18).
Variant GFTLNEYGIS, VIYSDGCRTIYGDSVK, GRAAGTFDS [Ctrl] showed nd, 2.59, nd, 4.11, nd, nd (controls 0 of 18).
Variant GFTLNSYGIS, VIYSDGRRTFYGDSVK, GRHAGTFVS [Ctrl] showed nd, nd, nd, nd, nd, nd (controls 1 of 18).
Variant GFTLNSYGIS, VIYSDGRRTFYGDSVK, GRAAKTFDW [Ctrl] showed nd, nd, nd, nd, nd, nd (controls 0 of 18).
Variant GVTLNSYGIS, VIYSDGMRTFYGDSYK, GRAAGTFDS [Ctrl] showed nd, nd, nd, nd, nd, nd (controls 0 of 18).
Variant GETLNKYGIS, VIYSDGRRTFYGDSVK, GSAAGTFDQ [Ctrl] showed nd, nd, nd, nd, nd, nd (controls 0 of 18).
Variant GFTLNSHGIS, VIYSDGRRTFYGDSVK, GRATGTFDS [Ctrl] showed nd, nd, nd, nd, nd, nd (controls 0 of 18).
Variant GFTLNSYGIS, VIYSDGYRTFYGDSVK, GRAAGGFDS [Ctrl] showed nd, nd, nd, 2.65, nd, 2.22 (controls 0 of 18).
Variant AFTLTSYGIS, VIYSDGRRTFYDDSVK, GRAAGTFDS [Ctrl] showed nd, 1.30, 1.32, nd, nd, 2.22 (controls 0 of 18).
Variant GFTLNSYGIS, VIYADGRRTFYGDSVK, GRAAGTFDS [Ctrl+GPLM_Gen] showed 1.07, 0.35, 0.43, 0.89, 0.98, 0.10; 0.22, -0.10, 0.20, -0.04, 0.40, 0.20; 0.29, -0.12, -0.05, -0.34, 0.13, 0.42; 0.77, 0.26, 0.22, 0.49, 0.49, 0.69; 0.27, 0.19, 0.10, 0.21, -0.12, 0.22; 0.45, -0.17, 0.20, 0.21, -0.01, 0.44 (controls 3 of 108).
Variant GFTLNEYGIS, VIYSDGLRTFYSDSVK, GQAAGTFDS [Ctrl] showed 0.01, 0.48, 0.04, 0.32, 1.65, 0.40 (controls 0 of 18).
Variant GFTLNSYGIS, VIYSDGRRTFYGDSVK, SKAAGTFDS [Ctrl] showed nd, nd, nd, nd, nd, nd (controls 0 of 18).
Variant GFTLNSYGIS, VIYSDGRRTFYGDSVK, GRAAGHKDS [Ctrl] showed nd, nd, nd, nd, nd, nd (controls 0 of 18).
Variant GFTLNSYGIS, VIYSDGRRTFYGDSVK, GRAMGTFDS [Ctrl] showed nd, nd, nd, nd, nd, nd (controls 0 of 18).
Variant HFTLNSYGIS, VIYSDGRKTCYGDSVK, GRAAGTFDS [Ctrl] showed nd, nd, nd, nd, nd, nd (controls 0 of 18).
Variant GFTLNSYGSS, VIYRDGRRTFYGDSVK, GRAAGTFDS [Ctrl] showed nd, nd, nd, nd, nd, nd (controls 0 of 18).
Variant GFTLNSYGIS, VIYSDGRRTFYGDSVK, GRVAGTFPS [Ctrl] showed 1.47, nd, 0.90, 1.58, 0.89, nd (controls 0 of 18).
Variant GFTLNSYGIS, VIYSDGFRTFYGDSVK, GRAAFTFDS [Ctrl] showed nd, nd, nd, nd, nd, nd (controls 0 of 18).
Variant GFTLNEYGIS, VIYSDGRRTFYGDSVK, GRAALTFDI [Ctrl] showed nd, nd, nd, nd, nd, nd (controls 1 of 18).
Variant GFTLNSYGIS, VIYSDGRRTAYGDNVK, GPAAGTFDS [Ctrl] showed nd, 3.57, nd, nd, nd, nd (controls 0 of 18).
Variant GFTLNSYGIS, VIYSDGFRTFYLDSVK, GNAAGTFDS [Ctrl] showed 0.93, -0.15, -0.18, 0.91, 0.90, 0.11 (controls 0 of 18).
Variant GFGLNSYGIS, VIYSDGRRTFYYDSVK, GRLAGTFDS [Ctrl] showed nd, nd, nd, nd, nd, nd (controls 0 of 18).
Variant GETLNSYGIS, VIYSDGWRTFYGDSVK, GRAAGEFDS [Ctrl] showed nd, nd, nd, nd, nd, nd (controls 0 of 18).
Variant GFTLNSYGIS, VIYSDGRRTAYGDSVK, GRAAGQFTS [Ctrl] showed nd, nd, nd, nd, nd, nd (controls 1 of 18).
Variant GFTLNSYGIS, VIYSDGQRTFYGDSVK, GRAAGTFNN [Ctrl] showed nd, nd, nd, nd, nd, nd (controls 0 of 18).
Variant GFTLDSYGIS, VIYSDGSRTFYGDSVK, GDAAGTFDS [Ctrl] showed 1.84, 2.16, 2.60, 3.52, 2.57, 2.24 (controls 1 of 18).
Variant GFTLNEYGIS, VIYSDGRRTFYGDSVR, GREAGTIDV [Ctrl] showed nd, nd, nd, nd, nd, nd (controls 0 of 18).
Variant GFTLNSYGIS, VIYSDGRRTFYIDSVK, GRAAGTFES [Ctrl] showed nd, nd, nd, nd, nd, nd (controls 0 of 18).
Variant GFTLKSYGIS, VIYSDGRRTFYGDEVK, GRAAGTFDS [Ctrl] showed nd, nd, 1.49, nd, nd, nd (controls 0 of 18).
Variant GLALNSYGIS, VIYSDGRRTFYYDDVS, GAAAGTFDS [Ctrl] showed nd, nd, nd, nd, nd, nd (controls 0 of 18).
Variant GFTLDSYGIT, VIYSDGRRTAYGDSVK, GDWAGTFDS [Ctrl] showed nd, nd, nd, nd, nd, nd (controls 0 of 18).
Variant GFTLNSYGIS, VIYSDGRRTFYTDSYK, GKAAGTFDS [Ctrl] showed nd, nd, nd, nd, nd, nd (controls 0 of 18).

Again, the first 3 entries without any signal:

Variant GFALNSYGIS, VIYSDGRRTFYGDQVK, QRAVGTFDS [Ctrl] showed nd, nd, nd, nd, nd, nd (controls 0 of 18).
Variant DFTLNSYGIS, VIYSDGLRTFYGDSVK, GRAAGTFDS [Ctrl] showed nd, nd, nd, nd, nd, nd (controls 0 of 18).
Variant TFNLNSYGIS, VIYSHGRRTFYQDSVK, GRAAGTFDS [Ctrl] showed nd, nd, nd, nd, nd, nd (controls 1 of 18).

Of ten entries with the parent sequence, four were seen in most replicates (averages 0.34 to 2.37), three in one and three in none, so single entries are noisy.
Nonspecific signal, from three strains lacking the peptide, appeared in 1% of pairings of all heavy chain designs, centred on 2.08 (5% of these signals below 0.84); values are not corrected for it. For each scFv, signals with the empty controls are counted beside the result.
A sequence that the file lists under several names has all its replicates listed entry by entry, parted by semicolons.
A sequence measured in both rounds can read differently, since the two assays cover different ranges.

Data: MIT Lincoln Laboratory AlphaSeq set, Li et al. 2023, doi:10.1038/s41467-023-39022-2, as distributed in FLAb.